Inhibition data for 54 compounds are collected here from PubChem BioAssay AID2058 (Sanford-Burnham Center for Chemical Genomics, 2009).

Amino acid sequences for entries named in this document (tags omitted).
UniProt Q9HC97, whole entry: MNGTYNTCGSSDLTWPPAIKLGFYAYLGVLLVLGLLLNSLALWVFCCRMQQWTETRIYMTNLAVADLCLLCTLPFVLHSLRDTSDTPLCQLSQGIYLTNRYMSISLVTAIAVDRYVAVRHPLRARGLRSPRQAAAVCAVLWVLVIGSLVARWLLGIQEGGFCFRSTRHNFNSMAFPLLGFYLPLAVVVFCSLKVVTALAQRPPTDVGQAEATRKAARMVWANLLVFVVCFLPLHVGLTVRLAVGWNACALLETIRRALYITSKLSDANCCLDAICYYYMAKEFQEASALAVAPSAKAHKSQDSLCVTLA

By inhibition is commonly meant the change of the read-out against control, counted positive when it falls.

The list shows a part of the results, in another mix than the full data. Entries with a potency or affinity are not part of this list. Activity calls are given as the source filed them.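 Rule for the calls: active = inhibition of at least 50% with at least 30 cells and total cytoplasm GFP at most 10,000,000; inconclusive = under 30 cells or total GFP of 10,000,000 plus; inactive = the rest.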

This test concerns the target G-protein coupled receptor 35 (Homo sapiens) (UniProt Q9HC97). Briefly: inhibition of zaprinast-stimulated GPR35 beta-arrestin translocation – imaging, U2OS, beta-arrestin-GFP, zaprinast agonist, primary screen (AID 2058). The settings on record: zaprinast antagonism, at 10 µM, stronger effect = higher value.
For the compound `CCCOc1ccc(C(=O)NCC2(N(C)C)CCCCC2)cc1OC`, the inhibition is inactive: 23.3%.
Next, `CC(C)c1ccc(NC2CCN(C(=O)OC(C)(C)C)CC2)cc1`: inactive: -1.4%; `COc1ccc(CN(CCCl)CCCl)cc1Cl`: inactive: -1%; `CN(C)c1cccc(C(=O)NCC2(N3CCCCC3)CCCCC2)c1`: inactive: -0.2%.
Next, `COc1cc(OC)c(C(=O)NCC2(N(C)C)CCCCC2)cc1OC`: inactive: -11.2%; `O=C(NCC1(N2CCCCC2)CCCCC1)c1cccc(C(F)(F)F)c1`: inactive: -3.7%; `O=C(NCC1(N2CCOCC2)CCCCC1)c1cc(=O)[nH]c2ccccc12`: inactive: -1.1%.
As for `COc1cc(C(=O)NCC2(N3CCCCC3)CCCCC2)ccc1OC(F)F`, the inhibition was inactive: -3.8%.
Then `COc1ccc(NC2CCN(C(=O)OC(C)(C)C)CC2)cc1`, with inactive: 22.2%; and `CN1CCN(CCOC(=O)C(O)(c2ccccc2)c2ccccc2)CC1`, with inactive: 4%.
Regarding `O=C(NCC1(N2CCCCC2)CCCCC1)c1ccc(OC(F)F)cc1`, the inhibition is inactive: -3.7%.
Next, `CCN1CCC(Nc2ccc(Cl)cc2)CC1`: inactive: 12.7%; `N#CC1(Nc2ccccc2)CCN(CCc2ccccc2)CC1`: inactive: 15.3%; `O=C(NCC1(N2CCCCC2)CCCCC1)c1cccc([N+](=O)[O-])c1`: inactive: 7.7%.
Then `COc1cc(C(=O)NCC2(N(C)C)CCCCC2)ccc1OC(F)F`, with inactive: 3.6%; and `CCOC(=O)N1CCC(Nc2cccc(C)c2)CC1`, with inactive: 3.6%.
Next, `Cc1ccc(OCC(C)C)c(CN(CCCl)CCCl)c1`: inactive: 4.8%; `CCOc1ccc(C)cc1CN(CCCl)CCCl`: inactive: -6.4%.
With `O=C(NCC1(N2CCCCC2)CCCCC1)c1ccc(F)cc1`, the inhibition is inactive: -3.1%.
Then `CCOC(=O)N1CCC(Nc2ccc(F)cc2)CC1`, with inactive: 8.8%.
Next, `COc1ccc(NC2CCN(CCc3ccccc3)CC2)c(OC)c1`: inactive: 3.8%; `Cc1cc(C)cc(N(C(=O)c2ccccc2)C2CCN(C(=O)OC(C)(C)C)CC2)c1`: inactive: 24.9%.
Next, `O=C(NCC1(N2CCOCC2)CCCCC1)c1cc2ccccc2o1`: inactive: -10.9%.
For `O=C(OC1CN2CCC1CC2)C1c2ccccc2Oc2ccccc21` (centres undefined), the inhibition was inactive: 7.9%.
For the compound `N#CC1(Nc2ccccc2)CCN(Cc2ccccc2)CC1`, the inhibition was inactive: 12.2%.
Next, `CCOC(=O)N1CCC(Nc2ccc(OC)cc2)CC1`: inactive: -9.8%; `COc1ccc(C(=O)NCC2(N3CCCCC3)CCCCC2)cc1`: inactive: -0.1%; `CC(C)(C)OC(=O)N1CCC(N(C(=O)c2ccccc2)c2ccc(F)cc2)CC1`: inactive: -10.1%.
Take `COc1ccc(C(=O)NCC2(N3CCCCC3)CCCCC2)c(OC)c1OC`: the inhibition is inactive: -14.1%.
On to `O=C(NCC1(N2CCCCC2)CCCCC1)c1ccc(=O)[nH]c1`, for which the inhibition is inactive: -10.5%.
As to `CSc1ccccc1C(=O)NCC1(N2CCCCC2)CCCCC1`, the inhibition is inactive: -13.7%.
For `COc1cccc(C(=O)N(c2cc(C)cc(C)c2)C2CCN(C(=O)OC(C)(C)C)CC2)c1`, the inhibition is inactive: -15.6%.
Next, `COc1cc(OC)cc(C(=O)NCC2(N3CCOCC3)CCCCC2)c1`: inactive: -4.6%.
Then `CCC(CO)(C(=O)OC1CN2CCC1CC2)c1ccccc1` (centres undefined), with inactive: -15.2%.
Next, `CN1CCC(Nc2ccc(Cl)cc2)CC1`: inactive: -4.5%.
For the compound `CCCOc1ccc(C)cc1CN(CCCl)CCCl`, the inhibition was inactive: -10.6%.
Next, `CCOc1ncccc1C(=O)NCC1(N2CCOCC2)CCCCC1`: inactive: 5.7%.
In the case of `CN1CCC(Nc2ccc(F)c(Cl)c2)CC1`, the inhibition is inactive: 2.1%.
Take `CC(C)(C)OC(=O)N1CCC(Nc2ccccc2)CC1`: the inhibition is inactive: -6.4%.
Then `O=C(O)C1(Nc2ccccc2)CCN(Cc2ccccc2)CC1`, with inactive: 8.8%; and `CCCOc1ccc(C(=O)NCC2(N(C)C)CCCCC2)cc1`, with inactive: 2%; and `CCN1CCC(Nc2cccc(F)c2)CC1`, with inactive: -10.2%.
On to `CN(C)c1ccc(C(=O)NCC2(N3CCCCC3)CCCCC2)cc1`, for which the inhibition was inactive: 15.9%.
With `COc1cc(OC)cc(C(=O)NCC2(N3CCCCC3)CCCCC2)c1`, the inhibition is inactive: 5.2%.
Then `Fc1ccccc1NC1CCN(Cc2ccccc2)CC1`, with inactive: -6%; and `CN(C)C1(CNC(=O)c2cccc(C#N)c2)CCCCC1`, with inactive: 11.2%; and `c1ccc(CN2CCC(Nc3ccccc3)CC2)cc1`, with inactive: 4%.
Then `CCCN1CCC(Nc2cc(OC)cc(OC)c2)CC1`, with inactive: 8.5%.
Consider `N#Cc1ccc(C(=O)NCC2(N3CCCCC3)CCCCC2)cc1`, for which the inhibition was inactive: 10.5%.
Then `CC(C)(C)OC(=O)N1CCC(N(C(=O)c2ccccc2)c2ccc(Cl)cc2)CC1`, with inactive: 10.6%.
Next, `CCOC(=O)N1CCC(Nc2ccc(C)cc2)CC1`: inactive: -7.9%; `N/C(=N\O)c1c(N)no[n+]1[O-]`: inactive: 13.9%.
Then `O=C(OC1CN2CCC1CC2)C1c2ccccc2C=Cc2ccccc21` (centres undefined), with inactive: 5.5%; and `COc1ccc(C(=O)NCC2(N3CCOCC3)CCCCC2)cc1OC`, with inactive: -11%.
